IC50 data for one molecule are collected here from patent US8742100B2, “Small molecule inhibitors of isoprenylcysteine carboxyl methyltransferase with potential anticancer activity” (National University of Singapore, priority 2009, dated 2014).

This assay concerns MDA-MB-231 human breast cells. Kind of assay: Proliferation assay, CellTiter 96 AQueous One Solution (MTS). The note with it: MDA-MB-231, 72 h, MDA-MB-231 cells, mean of two separate determinations, ±SD where more than two, read-out: IC50 Antiproliferative activity. The class given is cell-based. How it is done: The MDA-MB-231 human breast cells were maintained at 37° C. with 5% CO2 in DMEM (Sigma) supplemented with 10% fetal bovine serum (FBS, Hyclone), 50 U/ml penicillin (Gibco), and 50 μg/ml streptomycin (Gibco). […] The relative number of the live cells was determined using the CellTiter® 96 AQueous One Solution Cell Proliferation Assay (Promega). Each condition was performed in triplicate, and data presented represent that obtained from at least two separate experiments.
The MDA-MB-231 human breast cells were maintained at 37° C. with 5% CO2 in DMEM (Sigma) supplemented with 10% fetal bovine serum (FBS, Hyclone), 50 U/ml penicillin (Gibco), and 50 μg/ml streptomycin (Gibco). […] The relative number of the live cells was determined using the CellTiter® 96 AQueous One Solution Cell Proliferation Assay (Promega). Each condition was performed in triplicate, and data presented to date were obtained from one determination.

As to `CCCCCCCCn1cc(CC(N)=O)c2cc(-c3cccc(C)c3)ccc21` [cysmethynil, 2-(1-octyl-5-m-tolyl-1H-indol-3-yl) acetamide, reference compound], the IC50 (usually the midpoint of a concentration-inhibition curve) turned out to be 21.8 µM.
